Results on 44 substances are retold here after patent publication US20230295259A1 (Protagonist Therapeutics, Inc., priority 2020, published 2023).

Assay [1] concerns the target T1, human ferroportin (Homo sapiens, UniProt Q9NP59).
T1 construct: expressed in transfected cells
T1 sequence (Q9NP59 1-571): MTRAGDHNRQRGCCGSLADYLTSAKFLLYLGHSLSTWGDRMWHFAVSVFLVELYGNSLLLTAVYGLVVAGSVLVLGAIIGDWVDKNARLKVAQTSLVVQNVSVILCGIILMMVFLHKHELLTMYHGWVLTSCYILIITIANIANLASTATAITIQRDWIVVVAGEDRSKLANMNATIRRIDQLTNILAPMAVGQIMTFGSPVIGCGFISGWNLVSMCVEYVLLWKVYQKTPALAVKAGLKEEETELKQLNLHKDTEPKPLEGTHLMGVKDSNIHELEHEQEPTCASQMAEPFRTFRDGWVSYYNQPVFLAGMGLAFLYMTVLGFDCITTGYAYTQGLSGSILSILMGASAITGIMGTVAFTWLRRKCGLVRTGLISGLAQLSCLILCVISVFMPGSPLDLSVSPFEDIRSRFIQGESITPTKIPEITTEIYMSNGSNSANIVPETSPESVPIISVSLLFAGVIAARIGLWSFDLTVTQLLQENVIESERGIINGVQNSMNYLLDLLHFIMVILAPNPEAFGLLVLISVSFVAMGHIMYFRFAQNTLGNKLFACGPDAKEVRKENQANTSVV
In words: FPN activity assay: internalization/degradation of ferroportin-GFP in stably transfected HEK293 cells (decrease in GFP fluorescence). Format: cell-based. On the procedure: Following internalization, the ferroportin protein is degraded.
A retro inverse peptide is a peptide with a reversed sequence in all D amino acids. An example is that Hy-Glu-Thr-His-NH2 becomes Hy-DHis-DThr-DGlu-NH2. The EC50 of these reference compounds for ferroportin internalization/degradation was determined according to the FPN activity assay described above. These peptides served as control standards.
These values were determined as described herein.

Assay [2] deals with T2, ferroportin (endogenously expressed in T47D cells) (Homo sapiens, UniProt Q9NP59).
T2 construct: is a human breast carcinoma adherent cell line which endogenously expresses ferroportin; host or cells: T47D
T2 sequence (Q9NP59 1-571): T1 sequence (Q9NP59 1-571)
In words: T47D cell-based ferroportin internalization assay in presence of 0.5% mouse serum albumin (AF647-conjugated detection peptide, flow cytometry). The note with it: read-out: IC50: T47D Internalization MSA. For orientation: Flow cytometry measures light scatter and fluorescence of single cells or particles in a stream.

Setting [3] is: Table 2B, HEK293 cells expressing human ferroportin-GFP, at least 18 hours incubation, read-out: FPN EC50.
Setting [4] is: Table 2A, HEK293 cells expressing human ferroportin-GFP, at least 18 hours incubation, read-out: FPN EC50.
Setting [5] is: Table 2C, class symbols, read-out: FPN IC50.

Read-outs that look alike come from different tables or passages of the source.

On to “Butyric Acid-E-T-H-[Dpa]-P—C—I-[Lys(1PEG2_1PEG2_IsoGlu_C18_Diacid)]-[bhPhe]-[(D)Lys]-C—NH2 [Compound 259]”, for which, in assay [1] (setting [3]), the DC50 was found to be 18.6 nM. The same measure, in the same setting: as for “Cyclohexanecarboxylic_Acid-E-T-H-[Dpa]-P—C—I-[Lys(1PEG2_1PEG2_IsoGlu_C18_Diacid)]-[bhPhe]-[(D)Lys]-C—NH2 [Compound 260]”, the figure is 21.3 nM; as for “Heptanoic_Acid-E-T-H-[Dpa]-P—C—I-[Lys(1PEG2_1PEG2_IsoGlu_C18_Diacid)]-[bhPhe]-[(D)Lys]-C—NH2 [Compound 261]”, 125 nM. On to “Hexanoic_Acid-E-T-H-[Dpa]-P—C—I-[Lys(1PEG2_1PEG2_IsoGlu_C18_Diacid)]-[bhPhe]-[(D)Lys]-C—NH2 [Compound 263]”, for which the DC50 in assay [1] (setting [3]) turned out to be 941 nM. For the substance “Isovaleric Acid-E-T-H-[Dpa]-P-[Cys]-I-[(D)Lys]-[a-MePhe]-[Lys(2Peg11′_Palm)]-R-[Cys]-NH2 [Compound 28]”, the DC50 in assay [1] (setting [4]) came out at 28 nM.

Take “Isovaleric Acid-E-T-H-[Dpa]-P-[Cys]-I-[(D)Lys]-[bhPhe]-[Lys(1PEG2_1PEG2_Dap_C18_Diacid)]-[(D)Lys]-[Cys]-NH2 [Compound 333]”: in assay [1] (setting [3]), the DC50 was 64 nM. “Isovaleric Acid-E-T-H-[Dpa]-P-[Cys]-I-[(D)Lys]-[bhPhe]-[Lys(2Peg4_Ahx_Palm)]-[(D)Lys]-[Cys]-NH2 [Compound 69]”: in assay [1] (setting [4]), the DC50 was found to be 8.9 nM. The same measure, in the same setting: as for “Isovaleric Acid-E-T-H-[Dpa]-P-[Cys]-I-[(D)Lys]-[bhPhe]-[Lys(2Peg11′_Palm)]-R-[Cys]-NH2 [Compound 27]”, the figure is 20 nM; as for “Isovaleric Acid-E-T-H-[Dpa]-P-[Cys]-I-[(D)Lys]-[bhPhe]-[Lys(Ahx_Palm)]-[(D)Leu]-[Cys]-NH2 [Compound 90]”, 18.8 nM; as for “Isovaleric Acid-E-T-H-[Dpa]-P-[Cys]-I-[(D)Lys]-[bhPhe]-[Lys(Ahx_Palm)]-[(D)Lys]-[(D)Cys]-NH2 [Compound 94]”, 21 nM. Take “Isovaleric Acid-E-T-H-[Dpa]-P-[Cys]-I-[(D)Lys]-[bhPhe]-[Lys(Ahx_Palm)]-[(D)Lys_IVA)]-[Cys]-NH2 [Compound 96]”: the DC50 in assay [1] (setting [4]) was 24 nM. For “Isovaleric Acid-E-T-H-[Dpa]-P-[Cys]-I-[(D)Lys]-[bhPhe]-[Lys(IsoGlu_Palm)]-[(D)Lys]-[Cys]-NH2 [Compound 68]”, the DC50 in assay [1] (setting [4]) was found to be 5.2 nM. Same read-out and setting: the value for “Isovaleric Acid-E-T-H-[Dpa]-P-[Cys]-I-[(D)Lys_IVA)]-[bhPhe]-[Lys(Ahx_Palm)]-[(D)Lys_IVA)]-[Cys]-NH2 [Compound 106]” was 20.3 nM; that for “Isovaleric Acid-E-T-H-[Dpa]-P-[Cys]-I-[Lys(1PEG2_1PEG2_Ahx_C18_Diacid)]-[bhPhe]-[N—((CH2)5NH2)Gly]-[Cys]-NH2 [Compound 135]” was 16.6 nM. The same measure, in the same setting: as for “Isovaleric Acid-E-T-H-[Dpa]-P-[Cys]-I-[Lys(1Peg2_1Peg2_Ahx_Palm)]-[bhPhe]-[(D)Lys]-[Cys]-NH2 [Compound 64]”, the figure is 17.5 nM. With “Isovaleric Acid-E-T-H-[Dpa]-P-[Cys]-I-[Lys(1Peg2_1Peg2_IsoGlu_C18_Diacid)]-[bhPhe]-[(D)Lys]-[Cys]-NH2 [Compound 119]”, the DC50 in assay [1] (setting [4]) was found to be 72.1 nM.

“Isovaleric Acid-E-T-H-[Dpa]-P-[Cys]-I-[Lys(1Peg2_Ahx_C18_Diacid)]-[bhPhe]-[(D)Lys]-[Cys]-NH2 [Compound 116]”: in assay [1] (setting [4]), the DC50 came to 13.7 nM. On the same count and under the same terms, the value for “Isovaleric Acid-E-T-H-[Dpa]-P-[Cys]-I-[Lys(1Peg2_Ahx_Palm)]-[bhPhe]-[(D)Lys]-[Cys]-NH2 [Compound 62]” was 16.3 nM. Still for that read-out and setting: as for “Isovaleric Acid-E-T-H-[Dpa]-P-[Cys]-I-[Lys(2Peg8_Ahx_Palm)]-[bhPhe]-[(D)Lys]-[Cys]-NH2 [Compound 63]”, the figure is 24.7 nM; as for “Isovaleric Acid-E-T-H-[Dpa]-P-[Cys]-I-[Lys(2Peg11′_2Peg11′_Palm)]-[bhPhe]-[(D)Lys]-[Cys]-NH2 [Compound 38]”, 17.8 nM; as for “Isovaleric Acid-E-T-H-[Dpa]-P-[Cys]-I-[Lys(2Peg11′_Ahx_C18_Diacid)]-[bhPhe]-[(D)Lys]-[Cys]-NH2 [Compound 29]”, 15.5 nM. Same read-out and setting: the value for “Isovaleric Acid-E-T-H-[Dpa]-P-[Cys]-I-[Lys(2Peg11′_Ahx_IsoGlu_Behenic_acid)]-[bhPhe]-[(D)Lys]-[Cys]-NH2 [Compound 31]” was 18.7 nM; that for “Isovaleric Acid-E-T-H-[Dpa]-P-[Cys]-I-[Lys(2Peg11′_Ahx_Palm)]-[bhPhe]-[(D)Lys]-[Cys]-NH2 [Compound 32]” was 15.4 nM.

By IC50 is commonly meant the concentration at which inhibition is half-maximal. In the case of “Isovaleric Acid-E-T-H-[Dpa]-P-[Cys]-I-[Lys(2Peg11′_IsoGlu_C16_Diacid)]-[bhPhe]-[(D)Lys]-[Cys]-NH2 [Compound 109]”, the DC50 in assay [1] (setting [4]) came to 14.2 nM. In assay [2], the half-maximal inhibitory concentration (IC50) stood at 216 nM. Take “Isovaleric Acid-E-T-H-[Dpa]-P-[Cys]-I-[Lys(Ac)]-[bhPhe]-K-R-[Cys]-NH2 [Compound 42]”: the DC50 in assay [1] (setting [4]) was above 3000 nM.

Take “Isovaleric Acid-E-T-H-[Dpa]-P-[Cys]-I-[Lys(Ac)]-[bhPhe]-[(D)Lys(Ac)]-[Cys]-NH2 [Compound 120]”: the DC50 in assay [1] (setting [4]) is 10.7 nM. Still for that read-out and setting: the value for “Isovaleric Acid-E-T-H-[Dpa]-P-[Cys]-I-[Lys(Ac)]-[bhPhe]-[(D)Lys(Ac)]-[Cys]-[(D)Asp]-NH2 [Compound 125]” was 91 nM; that for “Isovaleric Acid-E-T-H-[Dpa]-P-[Cys]-I-[Lys(Ac)]-[bhPhe]-[(D)Lys(Ac)]-[Cys]-[(D)Glu]-NH2 [Compound 123]” was 90 nM; that for “Isovaleric Acid-E-T-H-[Dpa]-P-[Cys]-I-[Lys(Ac)]-[bhPhe]-[(D)Lys]-[Cys]-NH2 [Compound 118]” was 12.1 nM. The same measure, in the same setting: the value for “Isovaleric Acid-E-T-H-[Dpa]-P-[Cys]-I-[Lys(Ado_IsoGlu_C18_Diacid)]-[bhPhe]-[(D)Lys]-[Cys]-NH2 [Compound 37]” was 94.2 nM; that for “Isovaleric Acid-E-T-H-[Dpa]-P-[Cys]-I-[Lys(Ahx_Ahx_C18_Diacid)]-[bhPhe]-[(D)Lys]-[Cys]-NH2 [Compound 34]” was 15.4 nM. Same read-out and setting: the value for “Isovaleric Acid-E-T-H-[Dpa]-P-[Cys]-I-[bhPhe]-[Lys(Ahx_Palm)]-[(D)Lys]-[Cys]-NH2 [Compound 78]” was 39.3 nM. Consider “Isovaleric Acid-E-T-H-[Dpa]-P-[Cys]-L-[(D)Lys]-[bhPhe]-[Lys(Ahx_Palm)]-[(D)Lys]-[Cys]-NH2 [Compound 88]”, for which the DC50 in assay [1] (setting [4]) turned out to be 6.9 nM. Take “Isovaleric Acid-E-T-H-[Dpa]-P—C—I-[Lys(1PEG2_1PEG2_Ahx_C18_Diacid)]-[bhPhe]-[Lys(PEG11_OMe)]—C—NH2 [Compound 286]”: the DC50 in assay [1] (setting [3]) came out at 24.4 nM. The same measure, in the same setting: the value for “Isovaleric Acid-E-T-H-[Dpa]-P—C—I-[Lys(1PEG2_1PEG2_IsoGlu_C10_Diacid)]-[bhPhe]-[(D)Lys]-C—NH2 [Compound 235]” was 19.6 nM; that for “Isovaleric Acid-E-T-H-[Dpa]-[bhPhe]-C—I-[Lys(1PEG2_1PEG2_IsoGlu_C18_Diacid)]-[bhPhe]-[(D)Lys]-C—NH2 [Compound 273]” was 34 nM; that for “Isovaleric Acid-E-T-H—F—P—C—I-[Lys(1PEG2_1PEG2_IsoGlu_C10_Diacid)]-F-E-P—R—S—K-G-C—NH2 [Compound 249]” was 170 nM.

Take “Isovaleric Acid-[Glu_OMe]-T-H-[Dpa]-P-[Cys]-I-[meK]-[bhPhe]-[Lys(Ahx_Palm)]-[meLys]-[Cys]-NH2 [Compound 332]”: the DC50 in assay [1] (setting [3]) stood at 24 nM. On the same count and under the same terms, as for “Isovaleric_Acid-dIsoGlu-T-H-[Dpa]-P—C—I-[Lys(PEG12_C18_Diacid)]-[bhPhe]-[(D)Lys]-C—NH2 [Compound 311]”, the figure is 20.8 nM; as for “Octanoic_Acid-E-T-H-[Dpa]-P—C—I-[Lys(1PEG2_1PEG2_IsoGlu_C18_Diacid)]-[bhPhe]-[(D)Lys]-C—NH2 [Compound 241]”, 468 nM.

On to “Valeric_Acid-E-T-H-[Dpa]-P—C—I-[Lys(1PEG2_1PEG2_IsoGlu_C18_Diacid)]-[bhPhe]-[(D)Lys]-C—NH2 [Compound 264]”, for which the DC50 in assay [1] (setting [3]) is 622 nM.

“[Isovaleric Acid]-E-T-A-[Dpa]-P—C—I-[(D)Lys]-[bhPhe]-[Lys(Ahx_Palm)]-[(D)Lys]-C—NH2 [Compound 613]”: the DC50 in assay [1] (setting [5]) was 31 to 100 nM. Same read-out and setting: as for “[Isovaleric Acid]-E-T-[2Pal]-[Dpa]-P—C—I-[(D)Lys]-[bhPhe]-[Lys(PEG12_Palm)]-R—C—NH2 [Compound 621]”, the figure is 1 to 30 nM; as for “[Isovaleric Acid]-E-[Hyp]-H-[Dpa]-P—C—I-[(D)Lys]-[bhPhe]-[Lys(Ahx_Palm)]-[(D)Lys]-C—NH2 [Compound 619]”, 31 to 100 nM.
